In ChEMBL document CHEMBL5727255, “Treatment of inflammatory disorders in non-human mammals” (2019):

Tests used:
[1] = Inhibition Assay: The enzyme also can be detected based on the binding of specific ligands to the catalytic site which either immobilize the enzyme or label it with a probe such as dansyl, fluoracein, luciferase, green fluorescent protein or other reagent. The enzyme can be assayed by its hydration of EETs, its hydrolysis of an epoxide to give a colored product. The assays are normally carried out
[2] = as above; remark: listed apart in the source

Which results are given for `O=C(Nc1ccc(OC(F)(F)F)cc1)NC1CCC(Oc2ccc(C(=O)O)cc2)CC1` (configuration not stated)?
IC50 [1]: 5 nM and 1 nM; IC50 [2]: 1 nM and 6 nM

Where “and” joins values, the source holds several entries; their conditions need not be identical. Equal entries are not always repeated.
